Laboratory results taken from patent US20160297851A1, “BROAD SPECTRUM […]” (priority 2012, published 2016).

Biological target: truncated wild type E. coli SPase that lacks the N-terminal membrane helices (Δ2-75 variant of E. coli SPase) (Escherichia coli) (UniProt P00803)
Assay: steady-state increase of arylomycin fluorescence (ex 320 nm, em 410 nm) on binding the soluble N-terminally truncated (delta 2-75) wild type E. coli SPase

## arylomycin C16 (peptide)
  EC50 (read off the curve): 2000 nM
